Source: PMC12209991 (Clinical Pharmacology in Drug Development, 2025)

Test: Single ascending dose (SAD) pharmacokinetics in healthy volunteers
Format: in vivo, human
Settings: single doses, from 25 to 150 mg and then from 300 to 1000 mg

**Q.** Which “dose proportionality of plasma Cmax and AUCinf” value does the source give for `CC(=O)N1CCC(COc2cc(F)c3c(=O)[nH]c(CSC4CCOCC4)nc3c2)CC1` [RBN‐3143] here?
**A.** dose‐proportional
